Assay results published in article PMC6117412, “Comprehensive Study of the Enzymatic Catalysis of the Electrochemical Oxygen Reduction Reaction (ORR) by Immobilized Copper Efflux Oxidase (CueO) From Escherichia coli” (Frontiers in Chemistry, 2018).

The chains behind the UniProt entries cited, without tags or fusion partners. Residues count along the entry.
UniProt P36649, 29-516 limits assumed: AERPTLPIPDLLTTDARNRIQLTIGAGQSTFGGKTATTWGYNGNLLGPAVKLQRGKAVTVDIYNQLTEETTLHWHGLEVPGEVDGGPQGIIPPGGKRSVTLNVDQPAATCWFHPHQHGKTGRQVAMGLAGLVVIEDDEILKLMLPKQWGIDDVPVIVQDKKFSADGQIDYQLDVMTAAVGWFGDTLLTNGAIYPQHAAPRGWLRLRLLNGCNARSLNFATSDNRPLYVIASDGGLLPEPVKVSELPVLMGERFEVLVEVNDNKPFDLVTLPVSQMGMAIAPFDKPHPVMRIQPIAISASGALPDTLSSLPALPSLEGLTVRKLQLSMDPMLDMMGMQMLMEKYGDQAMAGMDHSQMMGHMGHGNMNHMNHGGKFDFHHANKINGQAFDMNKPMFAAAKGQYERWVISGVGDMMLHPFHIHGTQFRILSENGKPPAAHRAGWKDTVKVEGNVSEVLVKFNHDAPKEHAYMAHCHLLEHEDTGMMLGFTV

Biological target: CueO (copper efflux oxidase) (Escherichia coli, UniProt P36649)
Assay: cyclic voltammetry of electrocatalytic O2 reduction
Settings: immobilised on cysteamine-modified polycrystalline Au; O2-saturated phosphate buffer pH 6.5; 100 mM NaN3; direct electron transfer

[N-]=[N+]=N
cyclic voltammetry of electrocatalytic O2 reduction: F− and N3- behave as inhibitors of the catalytic ORR suppressing the activity of CueO
